Literature values in patent US20220235421A1, “DETECTING AND TREATING CISPLATIN SENSITIVE CANCER” (The Cleveland Clinic Foundation, priority 2021, published 2022).

Tested on: ALK-mutated tumors, non-small cell lung cancer
Conditions: Phase 3 trial; cited from earlier work

C[C@@H](Oc1cc(-c2cnn(C3CCNCC3)c2)cnc1N)c1c(Cl)ccc(F)c1Cl [Crizotinib]
progression-free survival (PFS): 10.7 month
